Measurements as given in patent US20260021092A1, “STRUCTURE-BASED DESIGN OF A NOVEL CLASS OF DRUGS FOR NEURODEGENERATIVE DISEASE” (The Regents of the University of California, priority 2022, published 2026).

Tested on: AD brain-derived tau fibrils
Test: Negative-stain EM and quantitative EM (qEM) of tau fibrils after compound incubation
Settings: 33 micrographs per condition

O=C(Nc1cccc(C(F)(F)F)c1)N1c2ccccc2Sc2ccccc21
fibril number by quantitative EM (qEM): corresponding reduction in fibril density was not seen
